For assay [1], the system named is C. albicans (CA-1, Strain SLU-1). The assay is described as follows: Radial diffusion assay. The assay is classed as cell-based, Candida albicans. The following applies: for Plate Assay (nmol), pure peptide activity: HPLC-purified peptide; for Plate Assay (nmol), pure peptide activity / Plate Assay (nmol), crude peptide activity: nanomoles required to achieve a net 30 mm^2 zone (log titration curve); for C. albicans pmol/30 mm^2 zone: pmoles of peptide added to well to achieve a 30 mm^2 zone, PROBIT analysis, crude or purified (P′) peptide. On the procedure: In the radial diffusion assay procedures, the CA-1 cultures and peptide solutions were prepared as in the broth assay procedure described above. Ten mL of molten underlayer agarose comprising 3% Sabouraud Dextrose broth, 1% agarose (Pharmacia, Piscataway, N.J.), 0.02% Tween 20, and 10 mM sodium phosphate at pH 7.4, was added to polystyrene tubes and maintained in a 56° C. water bath until the addition of yeast. Tubes were cooled to approximately 45° C., yeast were added to give a final concentration of 1×10^6 CFU/mL, and the tubes were mixed again by inverting. The contents were poured into level square petri dishes and distributed evenly. […] A series of wells were punched into the hardened agarose using a sterile 3 mm punch attached to a vacuum apparatus.
Peptides to be assayed were 2-fold serially diluted in Dulbecco's PBS (D-PBS) starting from a concentration of approximately 1 mg/mL. Five μL of each dilution were added to each well and the plates were incubated at 37° C. for 3 hours. An overlayer of 10 mL of molten agarose comprising 6% Sabouraud Dextrose broth, 1% agarose, and 10 mM sodium phosphate, pH 7.4, (at approximately 45° C.) was then added and plates were incubated overnight at 37° C. Following this overnight incubation, a dilute Coomassie solution was poured into the plates and allowed to stain for 24 hours.
Clear zones of growth inhibition around each well were measured with calipers. The actual area of growth inhibition (mm^2) was calculated by subtracting the area of the well. Table 1 below sets out the results of the radial diffusion assays for tested peptides in terms of the number of picomoles (pmol) of peptide required to establish a 30 mm^2 area of growth inhibition calculated by PROBIT analysis (e.g., calculated from regression of the linear portion of log-concentration dose-response curve, log pmol/well vs. net area of inhibition).

Assay [2] relates to mouse RAW 264.7 cells incubated with E. coli O113 LPS. The following applies: RAW 264.7 cells with E. coli O113 LPS; concentration reversing LPS growth inhibition by 50%. The method, then:
(§1) An in vitro LPS neutralization screening assay for evaluation of Domain III derived peptides was developed (as described in co-owned and co-pending U.S. patent application Ser. No. 08/306,473) which provides both a measure of efficacy of each peptide (EC50) and of the toxicity/growth inhibition of each peptide (IC50).
(§2) The cells were counted and their concentration adjusted to 2×10^5 cells/mL and 100 μL aliquots were added to each well of a 96-well microtitre plate. […] This incubation was performed in the absence or presence of peptides in varying concentrations between 25 ng/mL and 50 μg/mL. […] Cell proliferation was quantitatively measured by the addition of 1 μCi/well [^3H]-thymidine 5 hours after the time of initiation of the assay. After the 15-hour incubation, labeled cells were harvested onto glass fiber filters with a cell harvester (Inotech Biosystems, INB-384, Sample Processing and Filter Counting System, Lansing, Mich.).

A further assay relates to mouse RAW 264.7 cells. On the procedure: as §1, §2
The mark [3] stands for this setting: RAW 264.7 cell growth inhibited by 50%.

Each structure is given as a SMILES string. Read-outs that look alike come from different tables or passages of the source.

Take `CC[C@H](C)[C@H](NC(=O)[C@H](CC(C)C)NC(=O)[C@H](Cc1c[nH]c2ccccc12)NC(=O)[C@H](CCCCN)NC(=O)[C@@H](NC(=O)[C@H](CCCCN)NC(=O)[C@H](CO)NC(=O)[C@@H](N)CCCCN)C(C)C)C(=O)N[C@@H](CCC(N)=O)C(=O)N[C@@H](CC(C)C)C(=O)N[C@@H](Cc1ccccc1)C(=O)N[C@@H](Cc1c[nH]cn1)C(=O)N[C@@H](CCCCN)C(=O)N[C@@H](CCCCN)C(N)=O` [Peptide 97]: in assay [1], the “Plate Assay (nmol), pure peptide activity” value came out at 0.304 nmol and the “Plate Assay (nmol), crude peptide activity” value is given as 0.701 nmol.
The matching figures for `CC[C@H](C)[C@H](NC(=O)[C@H](CC(C)C)NC(=O)[C@H](Cc1c[nH]c2ccccc12)NC(=O)[C@H](CCCCN)NC(=O)[C@@H](NC(=O)[C@@H](N)CCCCN)C(C)C)C(=O)N[C@@H](CCC(N)=O)C(=O)N[C@@H](CC(C)C)C(=O)N[C@@H](Cc1ccccc1)C(=O)N[C@@H](Cc1c[nH]cn1)C(=O)N[C@@H](CCCCN)C(=O)N[C@@H](CCCCN)C(N)=O` [Peptide 286]: 0.253 nmol and 1.216 nmol.
As to `CC[C@H](C)[C@H](NC(=O)[C@H](CC(C)C)NC(=O)[C@H](Cc1c[nH]c2ccccc12)NC(=O)[C@@H](CCCCN)NC(=O)[C@H](N)CCCCN)C(=O)N[C@@H](CCC(N)=O)C(=O)N[C@@H](CC(C)C)C(=O)N[C@H](CCCCN)C(=O)N[C@H](CCCCN)C(N)=O` [XMP.342P], the “In Vitro LPS Neutralization EC50” value in assay [2] was “NA (NA for EC50 means no evidence neutralization of LPS at up to 50 μg/ml)”. Also, the “IC50 (toxicity/growth inhibition of peptide)” value with mouse RAW 264.7 cells (setting [3]) is recorded as “NA (NA for IC50 means no evidence of decreased RAW cell growth at up to 50 μg/ml)”.
Consider `CC[C@H](C)[C@H](NC(=O)[C@H](CC(C)C)NC(=O)[C@H](Cc1c[nH]c2ccccc12)NC(=O)[C@@H]1CCCN1)C(=O)N[C@@H](CCC(N)=O)C(=O)N[C@@H](CC(C)C)C(=O)N[C@@H](Cc1ccccc1)C(=O)N[C@@H](Cc1c[nH]cn1)C(=O)N[C@@H](CCCCN)C(=O)N[C@@H](CCCCN)C(=O)O` [XMP.353P], for which the “In Vitro LPS Neutralization EC50” value in assay [2] came to 4.42 ± 0.56 µg/mL. Also, in the assay with mouse RAW 264.7 cells (setting [3]), the “IC50 (toxicity/growth inhibition of peptide)” value is on record as “NA (NA for IC50 means no evidence of decreased RAW cell growth at up to 50 μg/ml)”.
In the case of `CC[C@@H](C)[C@@H](NC(=O)[C@@H](CC(C)C)NC(=O)[C@@H](Cc1c[nH]c2ccccc12)NC(=O)[C@H](N)CCCCN)C(=O)N[C@H](CCC(N)=O)C(=O)N[C@H](CC(C)C)C(=O)N[C@H](Cc1ccccc1)C(=O)N[C@H](Cc1c[nH]cn1)C(=O)N[C@H](CCCCN)C(=O)N[C@H](CCCCN)C(N)=O` [XMP.365P], in assay [2], the “In Vitro LPS Neutralization EC50” value was found to be 0.52 ± 0.07 µg/mL. Moreover, the “IC50 (toxicity/growth inhibition of peptide)” value in the assay with mouse RAW 264.7 cells is >25 µg/mL.
In the case of `CC[C@@H](C)[C@@H](NC(=O)[C@@H](CC(C)C)NC(=O)[C@@H](Cc1c[nH]c2ccccc12)NC(=O)[C@@H](CCCCN)NC(C)=O)C(=O)N[C@H](CCC(N)=O)C(=O)N[C@H](CC(C)C)C(=O)N[C@H](Cc1ccccc1)C(=O)N[C@H](Cc1c[nH]cn1)C(=O)N[C@H](CCCCN)C(=O)N[C@H](CCCCN)C(N)=O` [XMP.366P], the “IC50 (toxicity/growth inhibition of peptide)” value in the assay on mouse RAW 264.7 cells was found to be 18.28 ± 2.57 µg/mL.
Regarding `CC[C@H](C)[C@H](NC(=O)[C@H](CC(C)C)NC(=O)[C@H](Cc1c[nH]c2ccccc12)NC(=O)[C@H](CCCCN)NC(C)=O)C(=O)N[C@@H](CCC(N)=O)C(=O)N[C@@H](CC(C)C)C(=O)N[C@@H](Cc1ccccc1)C(=O)N[C@@H](Cc1c[nH]cn1)C(=O)N[C@@H](CCCCN)C(=O)N[C@@H](CCCCN)C(N)=O` [XMP.373P], the “In Vitro LPS Neutralization EC50” value in assay [2] was 12.79 ± 0.19 µg/mL. Besides, the “IC50 (toxicity/growth inhibition of peptide)” value with mouse RAW 264.7 cells is >25 µg/mL.
Regarding `CC[C@H](C)[C@H](NC(=O)[C@H](C)NC(=O)[C@H](Cc1c[nH]c2ccccc12)NC(=O)[C@@H]1CCCN1)C(=O)N[C@@H](CCC(N)=O)C(=O)N[C@@H](CC(C)C)C(=O)N[C@@H](CCCCN)C(=O)N[C@@H](CCCCN)C(N)=O` [XMP.378P], the “In Vitro LPS Neutralization EC50” value in assay [2] is given as “NA (NA for EC50 means no evidence neutralization of LPS at up to 50 μg/ml)”. Also, in the assay with mouse RAW 264.7 cells (setting [3]), the “IC50 (toxicity/growth inhibition of peptide)” value is “NA (NA for IC50 means no evidence of decreased RAW cell growth at up to 50 μg/ml)”.
On to `CC[C@H](C)[C@H](NC(=O)[C@H](C)NC(=O)[C@H](Cc1c[nH]c2ccccc12)NC(=O)[C@@H]1CCCN1)C(=O)N[C@@H](CCC(N)=O)C(=O)N[C@@H](CC(C)C)C(=O)N[C@@H](CCCCN)C(=O)N[C@@H](CCCCN)C(N)=O` [XMP.378], for which the “C. albicans pmol/30 mm^2 zone” value in assay [1] is 2,084 pmol/30 mm^2 zone.
Consider `CC[C@H](C)[C@H](NC(=O)[C@H](CC(C)C)NC(=O)[C@H](Cc1c[nH]c2ccccc12)NC(=O)CNC(=O)[C@@H](N)CCCCN)C(=O)N[C@@H](CCC(N)=O)C(=O)N[C@@H](CC(C)C)C(=O)N[C@@H](Cc1ccccc1)C(=O)N[C@@H](Cc1c[nH]cn1)C(=O)N[C@@H](CCCCN)C(=O)N[C@@H](CCCCN)C(N)=O` [XMP.389P], for which the “In Vitro LPS Neutralization EC50” value in assay [2] turned out to be 1.78 ± 0.09 µg/mL. Moreover, the “IC50 (toxicity/growth inhibition of peptide)” value with mouse RAW 264.7 cells (setting [3]) is listed as “NA (NA for IC50 means no evidence of decreased RAW cell growth at up to 50 μg/ml)”.
Regarding `CC[C@H](C)[C@H](NC(=O)[C@H](CC(C)C)NC(=O)[C@H](Cc1c[nH]c2ccccc12)NC(=O)CNC(=O)[C@@H](NC(=O)[C@@H](N)CCCCN)C(C)C)C(=O)N[C@@H](CCC(N)=O)C(=O)N[C@@H](CC(C)C)C(=O)N[C@@H](Cc1ccccc1)C(=O)N[C@@H](Cc1c[nH]cn1)C(=O)N[C@@H](CCCCN)C(=O)N[C@@H](CCCCN)C(N)=O` [XMP.391P], in assay [2], the “In Vitro LPS Neutralization EC50” value turned out to be 1.49 ± 0.02 µg/mL. Also, the “IC50 (toxicity/growth inhibition of peptide)” value in the assay on mouse RAW 264.7 cells (setting [3]) is reported as “NA (NA for IC50 means no evidence of decreased RAW cell growth at up to 50 μg/ml)”.
In the case of `CC[C@H](C)[C@H](NC(=O)[C@H](CC(C)C)NC(=O)[C@H](C)NC(=O)CNC(=O)[C@@H](NC(=O)[C@H](CCCCN)NC(=O)[C@H](CO)NC(=O)[C@H](CCCCN)NC(=O)[C@@H]1CCCN1)C(C)C)C(=O)N[C@@H](CCC(N)=O)C(=O)N[C@@H](CC(C)C)C(=O)N[C@@H](Cc1ccccc1)C(=O)N[C@@H](Cc1c[nH]cn1)C(=O)N[C@@H](CCCCN)C(=O)N[C@@H](CCCCN)C(N)=O` [XMP.406P], in assay [2], the “In Vitro LPS Neutralization EC50” value is >50 µg/mL. Besides, in the assay with mouse RAW 264.7 cells (setting [3]), the “IC50 (toxicity/growth inhibition of peptide)” value is on record as “NA (NA for IC50 means no evidence of decreased RAW cell growth at up to 50 μg/ml)”.
Take `CC[C@H](C)[C@H](NC(=O)[C@H](CC(C)C)NC(=O)[C@H](C)NC(=O)CNC(=O)[C@@H](NC(=O)[C@H](CCCCN)NC(=O)[C@H](CO)NC(=O)[C@H](CCCCN)NC(=O)[C@@H]1CCCN1)C(C)C)C(=O)N[C@@H](CCC(N)=O)C(=O)N[C@@H](CC(C)C)C(=O)N[C@@H](Cc1ccccc1)C(=O)N[C@@H](Cc1c[nH]cn1)C(=O)N[C@@H](CCCCN)C(=O)N[C@@H](CCCCN)C(N)=O` [XMP.406]: the “C. albicans pmol/30 mm^2 zone” value in assay [1] turned out to be 423 pmol/30 mm^2 zone.
With `CC[C@H](C)[C@H](NC(=O)[C@H](CC(C)C)NC(=O)[C@H](C)NC(=O)CNC(=O)[C@@H](NC(=O)[C@H](CCCCN)NC(=O)[C@H](CO)NC(=O)[C@H](CCCCN)NC(=O)[C@@H]1CCCN1)C(C)C)C(=O)N[C@@H](CCC(N)=O)C(=O)N[C@@H](CC(C)C)C(=O)N[C@@H](Cc1ccccc1)C(=O)N[C@@H](Cc1c[nH]cn1)C(=O)N[C@@H](CCCCN)C(=O)N[C@@H](CCCCN)C(=O)N[C@@H](CC(=O)O)C(N)=O` [XMP.407P], the “In Vitro LPS Neutralization EC50” value in assay [2] is on record as “NA (NA for EC50 means no evidence neutralization of LPS at up to 50 μg/ml)”. Moreover, the “IC50 (toxicity/growth inhibition of peptide)” value in the assay with mouse RAW 264.7 cells (setting [3]) is “NA (NA for IC50 means no evidence of decreased RAW cell growth at up to 50 μg/ml)”.
On to `CC[C@H](C)[C@H](NC(=O)[C@H](CC(C)C)NC(=O)[C@H](C)NC(=O)CNC(=O)[C@@H](NC(=O)[C@H](CCCCN)NC(=O)[C@H](CO)NC(=O)[C@H](CCCCN)NC(=O)[C@@H]1CCCN1)C(C)C)C(=O)N[C@@H](CCC(N)=O)C(=O)N[C@@H](CC(C)C)C(=O)N[C@@H](Cc1ccccc1)C(=O)N[C@@H](Cc1c[nH]cn1)C(=O)N[C@@H](CCCCN)C(=O)N[C@@H](CCCCN)C(=O)N[C@@H](CC(=O)O)C(N)=O` [XMP.407], for which, in assay [1], the “C. albicans pmol/30 mm^2 zone” value is 1,240 pmol/30 mm^2 zone.

The values are drawn from patent US6664231B1, “Anti-fungal peptides” (priority 1993, dated 2003).
